Values of other authors, collected in article PMC5428233, “Cross-beta nanostructures based on dinaphthylalanine Gd-conjugates loaded with doxorubicin” (Scientific Reports, 2017).
Several values for one entry are separate records, joined by “and”; a condition that tells them apart may be missing. Identical values can stand only once.

Set-up: method as in doi:10.1002/adfm.201502458
Conditions: previously found value; cited from earlier work

Question: With Gd-DOTA-L6-F4 as the substance, how does the “critical aggregation concentration (CAC)” value read?
Answer: 5.1·10^−5 M and 0.076 mg/mL
